Data taken from PubChem BioAssay AID2520 (Sanford-Burnham Center for Chemical Genomics, 2010).
The entries are a selection whose mix differs from that of the whole data set. Some structures show a salt or complex split into parts, the way the source records it. Activity calls are given as the source filed them.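 How the source made its calls: active means activation more than six SD over the plate average, tested at 20 µM; inactive means the rest.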

Chains of the proteins cited; added tags and fusions are not shown.
UniProt P35414, whole entry: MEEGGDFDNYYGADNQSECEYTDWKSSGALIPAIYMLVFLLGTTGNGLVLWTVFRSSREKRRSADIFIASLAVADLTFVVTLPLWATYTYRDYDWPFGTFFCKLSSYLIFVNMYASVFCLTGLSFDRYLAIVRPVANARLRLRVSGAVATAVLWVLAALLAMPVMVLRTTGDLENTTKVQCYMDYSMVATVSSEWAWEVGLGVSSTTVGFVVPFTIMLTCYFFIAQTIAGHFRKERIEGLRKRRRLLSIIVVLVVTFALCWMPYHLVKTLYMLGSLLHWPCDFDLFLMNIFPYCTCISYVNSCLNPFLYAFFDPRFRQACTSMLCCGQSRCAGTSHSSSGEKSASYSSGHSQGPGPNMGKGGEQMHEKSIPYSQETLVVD

Biological target: Apelin receptor (Homo sapiens) (UniProt P35414)
Assay: APJ activation via beta-arrestin recruitment – CHO-K1 cells, PathHunter beta-arrestin, luminescence, primary screen (AID 2520)
Conditions: at 20 µM, stronger effect = higher value, 0% DMSO wells, 100% apelin
In short: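 Material: engineered CHO-K1 APJ arrestin reporter cells; amount: 1000 CHO-K1 reporter cells seeded per well; incubation: compound stimulation 90 min at 25 °C, detection 60 min; signal: luminescent beta-gal fragment complementation, chemiluminescent substrate; read-out basis: APJ agonist activity; controls: DMSO-only wells as negative, 10 nM Apelin-13 as positive control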

| SMILES | activation |
| --- | --- |
| Nc1ccc2c(ccc3cccnc32)n1.O=[N+]([O-])c1cc([N+](=O)[O-])c(O)c([N+](=O)[O-])c1 | inactive: -4.16% |
| CCOC(=O)c1ccc(NP(C)(=O)Oc2ccc(Cl)cc2)cc1 (stereo not given) | inactive: 2.51% |
| CP(=O)(OC12CC3CC(CC(C3)C1)C2)OC12CC3CC(CC(C3)C1)C2 | inactive: -4.04% |
| CC(C)(C)c1ccc(OP(C)(=O)O)cc1 | inactive: -0.739% |
| COc1ccccc1OP(C)(=O)Nc1ccccc1Br (stereo not given) | inactive: -1.19% |
| CP(=O)(Nc1ccc(Cl)cc1)Oc1ccc(F)cc1 (stereo not given) | inactive: -4.79% |
| CN(C)C(=O)c1c([N+](=O)[O-])cc([N+](=O)[O-])cc1[N+](=O)[O-] | inactive: 1.88% |
| COc1ccc(OP(C)(=O)Nc2ccc(Br)cc2)cc1 (stereo not given) | inactive: 0.738% |
| CCN(CC)CC(O)COC(=O)C(O)(c1ccccc1)C1CCCCC1 (stereo not given) | inactive: 0.565% |
| O=C(OCCCN1CCCC1)C(O)(c1ccccc1)C1CCCCC1 (stereo not given) | inactive: -1.12% |
| COc1ccccc1OP(C)(=O)Nc1c(C)n(C)n(-c2ccccc2)c1=O (stereo not given) | inactive: 2.45% |
| CCc1ccc(OP(C)(=O)Nc2cccnc2)cc1 (stereo not given) | inactive: -0.729% |
| CP(=O)(Oc1ccccc1)N1CCOC1=O (stereo not given) | inactive: -3.59% |
| O=[N+]([O-])c1cc([N+](=O)[O-])c(Nc2ccccn2)c([N+](=O)[O-])c1 | inactive: -2.24% |
| Cc1c(NP(C)(=O)Oc2ccc(C(C)C)cc2)c(=O)n(-c2ccccc2)n1C (stereo not given) | inactive: -3.43% |
| COc1ccccc1OP(C)(=O)Nc1ccc(C)cc1C (stereo not given) | inactive: 0.288% |
| CP(=O)(Nc1ccccn1)Oc1ccccc1 (stereo not given) | inactive: -2.93% |
| CCc1ccc(OP(C)(=O)O)cc1 | inactive: -2.26% |
| COc1ccccc1OP(C)(=O)Nc1ccc(Br)cc1 (stereo not given) | inactive: -0.681% |
| COc1ccc(OP(C)(=O)Nc2ccccn2)cc1 (stereo not given) | inactive: -2.12% |
| CN(C)CCOC(=O)C(O)(c1ccccc1)C1CCCC1 (stereo not given) | inactive: -2.17% |
| Cc1nc2ccc3ccccc3c2o1.O=[N+]([O-])c1cc([N+](=O)[O-])c(O)c([N+](=O)[O-])c1 | inactive: 1.97% |
| CP(=O)(OCCOc1ccccc1)OCCOc1ccccc1 | inactive: -4.01% |
| CP(=O)(Nc1ccc(Cl)cc1Cl)Oc1ccccc1 (stereo not given) | inactive: -0.904% |
| Cc1cc(C)cc(OP(C)(=O)Nc2cccc(C(F)(F)F)c2)c1 (stereo not given) | inactive: -1.3% |
| COc1ccccc1OP(C)(=O)Nc1ccc(C)c(C)c1 (stereo not given) | inactive: -0.686% |
| COc1ccc(OP(C)(=O)Nc2ccccc2Br)cc1 (stereo not given) | inactive: -3.69% |
| CCN(CC)CCCOC(=O)C(O)(c1ccccc1)C1CCCCC1 (stereo not given) | inactive: -2.43% |

| SMILES | activation |
| --- | --- |
| CP(=O)(Nc1ccccc1)Oc1ccc(F)cc1 (stereo not given) | inactive: -0.0698% |
| O=[N+]([O-])c1cc([N+](=O)[O-])c(OC2CCCCC2O)c([N+](=O)[O-])c1 (stereo not given) | inactive: -0.0306% |
| CCCCCOc1ccc(NP(C)(=O)Oc2ccc(Cl)cc2Cl)cc1 (stereo not given) | inactive: -2.33% |
| CCOC(=O)c1ccc(NP(C)(=O)Oc2ccc(F)cc2)cc1 (stereo not given) | inactive: -3.73% |
| COc1ccc(OP(C)(=O)Nc2ccc(SC(F)(F)F)cc2)cc1 (stereo not given) | inactive: -3.55% |
| O=C(OC1CN2CCC1CC2)c1ccc([N+](=O)[O-])cc1 (stereo not given) | inactive: -0.429% |
| O=C(OCCN1CCN(CCOCc2ccccc2)CC1)C(O)(c1ccccc1)c1ccccc1 | inactive: -0.93% |
| COc1ccc2c(c1O)-c1c(O)c(OC)cc3c1[C@H](C2)[N+](C)(C)CC3.O=[N+]([O-])c1cc([N+](=O)[O-])c([O-])c([N+](=O)[O-])c1[O-] | inactive: 2.49% |
| CP(=O)(Nc1ccccc1F)Oc1ccccc1 (stereo not given) | inactive: -3.23% |
| CC(C)c1ccc(OP(C)(=O)Nc2ccc(SC(F)(F)F)cc2)cc1 (stereo not given) | inactive: -0.814% |
| CP(=O)(Nc1ccc2c(c1)OCCO2)Oc1ccccc1 (stereo not given) | inactive: 0.12% |
| Cc1ccccc1NP(C)(=O)Nc1ccccc1C | inactive: 3.17% |
| CP(=O)(Nc1ccc(SC(F)(F)F)cc1)Oc1ccc(F)cc1 (stereo not given) | inactive: 0.955% |
| CCOP(C)(=S)SCC(=O)NC(C)(CC)C(=O)O (stereo not given) | inactive: 5.79% |
| O=[N+]([O-])c1cc([N+](=O)[O-])c(NCC2CCS(=O)(=O)C2)c([N+](=O)[O-])c1 (stereo not given) | inactive: 5.68% |
| COc1ccc(OP(C)(=O)Nc2cccc(Br)c2)cc1 (stereo not given) | inactive: -7.08% |
| CN(C)CCOC(=O)C(O)(c1ccccc1)C1CCCCC1 (stereo not given) | inactive: -1.67% |
| COc1ccc(NP(C)(=O)Oc2ccccc2OC)cc1 (stereo not given) | inactive: -1.23% |
| COc1ccccc1OP(C)(=O)Nc1c(C)cccc1C (stereo not given) | inactive: -1.24% |
| CN1CCCCC1COC(=O)C1(O)c2ccccc2CCc2ccccc21 (stereo not given) | inactive: -4.17% |
| CP(=O)(Nc1ccc(SC(F)(F)F)cc1)Oc1ccccc1 (stereo not given) | inactive: -0.62% |
| CCCOc1ccc(NP(C)(=O)Oc2ccc(Cl)cc2)cc1 (stereo not given) | inactive: -2.43% |
| CCOC(=O)C(CC)C1=NC(C)(C)Cc2ccccc21.O=[N+]([O-])c1cc([N+](=O)[O-])c(O)c([N+](=O)[O-])c1 (stereo not given) | inactive: 0.302% |
| O=[N+]([O-])c1cc([N+](=O)[O-])c(Nc2nnnn2CCO)c([N+](=O)[O-])c1 | inactive: -9.62% |
| CC1=C2N=C(C=C3N=C(C(C)=C4[N-][C@@](C)([C@@H]5N=C1[C@](C)(CCC(=O)NC[C@@H](C)OP(=O)([O-])O[C@H]1[C@@H](O)[C@@H](n6cnc7cc(C)c(C)cc76)O[C@@H]1CO)[C@H]5CC(N)=O)[C@@](C)(CC(N)=O)[C@@H]4CCC(N)=O)[C@@](C)(CC(N)=O)[C@@H]3CCC(N)=O)C(C)(C)[C@@H]2CCC(N)=O.[C-]#N.[Co+3] | inactive: -10.8% |
| O=[N+]([O-])c1cc([N+](=O)[O-])c(-c2cnn(-c3ccccc3)c2)c([N+](=O)[O-])c1 | active: 20.6% |
| Cc1nc2ccc3ccccc3c2s1.O=[N+]([O-])c1cc([N+](=O)[O-])c(O)c([N+](=O)[O-])c1 | inactive: -9.46% |
